{"source": "ChEMBL document CHEMBL1152770", "about": "“Inhibitors of hepatitis C virus polymerase: synthesis and biological characterization of unsymmetrical dialkyl-hydroxynaphthalenoyl-benzothiadiazines” (J Med Chem, 2009)", "key": {"Nucleic Acid [1]": {"test_system": "Nucleic Acid", "assay": "Ratio of drug level in rat liver after 12 hrs to EC50 for HCV isolate Con1 in presence of 40% human serum", "assay_type": "tissue-based"}, "Nucleic Acid [2]": {"test_system": "Nucleic Acid", "assay": "Ratio of drug level in rat liver after 6 hrs to EC50 for HCV isolate Con1 in presence of 40% human serum", "assay_type": "tissue-based"}}, "data": [{"smiles": "CC(C)CC[C@@]1(C)C(=O)C(C2=NS(=O)(=O)c3cc(NS(C)(=O)=O)ccc3N2)=C(O)c2ccccc21", "values": [{"measurement": "Ratio", "setting": "Nucleic Acid [1]", "result": 68}, {"measurement": "Ratio", "setting": "Nucleic Acid [2]", "result": 175}]}]}
